Consider 1 compound from patent US7033773B1, “Screening assays for G protein coupled receptor agonists and antagonists” (The General Hospital Corporation, priority 1997, dated 2006).

Experiment [1] addresses T1, rat PTHR (Rattus norvegicus, UniProt P25961).
T1 construct: expressed in transfected cells; host or cells: LLC-PK1 porcine renal epithelial cells (EW5; also EW29, AR-C38, AR-B44)
T1 sequence (P25961 27-591): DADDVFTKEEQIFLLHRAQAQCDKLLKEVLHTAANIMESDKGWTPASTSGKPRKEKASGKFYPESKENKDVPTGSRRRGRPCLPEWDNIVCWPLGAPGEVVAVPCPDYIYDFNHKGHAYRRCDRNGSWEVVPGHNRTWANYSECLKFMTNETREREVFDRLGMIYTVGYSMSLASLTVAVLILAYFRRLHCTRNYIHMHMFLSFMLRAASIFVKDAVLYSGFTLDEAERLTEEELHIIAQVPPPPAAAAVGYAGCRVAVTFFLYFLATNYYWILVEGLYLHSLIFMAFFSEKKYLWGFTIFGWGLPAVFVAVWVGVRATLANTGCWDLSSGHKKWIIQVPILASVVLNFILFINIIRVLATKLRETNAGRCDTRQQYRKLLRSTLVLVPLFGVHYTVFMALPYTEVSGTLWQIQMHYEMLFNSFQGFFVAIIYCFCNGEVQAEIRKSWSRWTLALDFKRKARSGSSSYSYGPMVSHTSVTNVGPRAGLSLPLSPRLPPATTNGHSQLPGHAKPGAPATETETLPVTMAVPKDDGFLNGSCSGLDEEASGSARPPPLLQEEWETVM
As to the kind of experiment: Cellular cAMP accumulation in LLC-PK1 cells expressing rat PTHR. It counts as cell-based. The note with it: for cAMP Accumulation (maximal response): 1000 nM, mean±SD. How it is done: FIG. 10. Stimulation of cyclic AMP accumulation by hPTH(1-31) and hPTH(1-34) in LLC-PK1 cells that express rat PTHRs. Cyclic AMP accumulation was measured in response to hPTH(1-34) (●) or hPTH(1-31) (Δ) in EW5 cells that expressed 320,000 rat PTHRs per cell. Results are expressed as fold basal.
Cells were seeded into 24-well plates at a density of 2.5×10^5 cells/well and cultured for a further 2 days before study. The cells were rinsed once with 0.5 ml of ice-cold Buffer B [10 mM HEPES (pH 7.4), 130 mM NaCl, 5 mM KCl, 1.2 mM CaCl2, 1 mM MgCl2, 1.2 mM Na2HPO^4 5 mM glucose, and 0.1% heat-inactivated BSA] supplemented with 1 mM isobtylmethylxanthine (IBMX), and placed on ice. Treatments were added to each well in 0.25 ml of IBMX-supplemented Buffer B, after which the plates were incubated at 37° C. for 15 min. The buffer then was rapidly aspirated, the plates were rapidly transferred onto liquid nitrogen, and the frozen monolayers were subsequently thawed directly into 0.5 ml of 50 mM HCl. The extracted cAMP then was measured using a commercial RIA kit (Dupont-New England Nuclear, Boston, Mass.). Results were expressed as fold-basal, where basal levels ranged between 38 and 128 pmol/mg protein/15 min. The basal level of cAMP accumulation in native LLC-PK1 cells was not consistently altered in subclones that expressed wild type PTH/PTHrp receptors.

Experiment [2] concerns the target T2, human PTH/PTHrP receptor (Homo sapiens, UniProt Q03431).
T2 sequence (Q03431 27-593): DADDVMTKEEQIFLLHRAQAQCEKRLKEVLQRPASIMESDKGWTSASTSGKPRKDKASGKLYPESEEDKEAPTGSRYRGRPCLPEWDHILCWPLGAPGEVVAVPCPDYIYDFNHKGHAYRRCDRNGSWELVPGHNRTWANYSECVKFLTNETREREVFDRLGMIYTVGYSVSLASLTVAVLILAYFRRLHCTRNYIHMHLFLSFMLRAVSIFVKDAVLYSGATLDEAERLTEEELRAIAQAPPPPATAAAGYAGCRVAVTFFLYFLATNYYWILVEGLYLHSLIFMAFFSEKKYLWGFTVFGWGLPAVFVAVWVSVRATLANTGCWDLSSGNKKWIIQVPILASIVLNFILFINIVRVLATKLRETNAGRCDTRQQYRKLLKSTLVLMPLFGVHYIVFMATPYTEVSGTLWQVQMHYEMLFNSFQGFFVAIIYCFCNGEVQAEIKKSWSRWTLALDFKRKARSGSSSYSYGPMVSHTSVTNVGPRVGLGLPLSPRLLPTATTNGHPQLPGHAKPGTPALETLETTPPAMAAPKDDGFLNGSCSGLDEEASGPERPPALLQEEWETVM
As to the kind of experiment: Cytosolic free calcium (fura-2) in LLC-PK1 cells expressing human PTHR.

Experiment [3] addresses T2, human PTH/PTHrP receptor. As to the kind of experiment: Cellular phosphate uptake in LLC-PK1 cells expressing human PTHR. The class given is cell-based. On the set-up: transfected with a full-length human PTH/PTHrP receptor cDNA; expressed in transfected cells. How it is done: FIG. 8. Regulation of phosphate uptake by PTH in HKRK B7 and HKRK B28 cells. […] Results are expressed as percentage of basal, and each bar represents the mean±SEM of a representative experiment performed in triplicate. Similar results were obtained from at least 5 individual experiments. Cells were seeded into 24-well plates at a density of 2.5×10^5 cells/well and cultured for a further 2 days before study. Twenty four hours before assay, cells were refed with 0.5 ml of DMEM containing 0.1% BSA. The next day, cells were refed with serum-free medium (DMEM+0.1% BSA) containing drugs or peptides, and the incubations were continued at 37° C. under 5% CO2 in air for another 6 hr. Cells then were washed with prewarmed Buffer B without BSA and Na2HPO4 and then were incubated at 37° C. for 5 min in 0.25 ml of the same buffer containing [^32P]orthophosphate (4 uCi/ml) and 0.1 mM Na2HPO4. Phosphate uptake was arrested by adding 1 ml of ice-cold sodium-free “stop buffer” [10 mM HEPES (pH 7.4), 140 mM choline chloride, and 5 mM sodium arsenate], followed by two further washes with same buffer. The drained cell layer then was solubilized in 0.5 ml of Lysis Buffer, and cell-associated radioactivity was determined by Cerenkov counting, as previously described (Guo, J., et al., Endocrinology 136:3884-3891 (1995)).

Each structure is given as a SMILES string.

Turning to `CC[C@H](C)[C@H](NC(=O)[C@H](CCC(=O)O)NC(=O)[C@H](CO)NC(=O)[C@@H](NC(=O)[C@@H](N)CO)C(C)C)C(=O)N[C@@H](CCC(N)=O)C(=O)N[C@@H](CC(C)C)C(=O)N[C@@H](CCSC)C(=O)N[C@@H](Cc1c[nH]cn1)C(=O)N[C@@H](CC(N)=O)C(=O)N[C@@H](CC(C)C)C(=O)NCC(=O)N[C@@H](CCCCN)C(=O)N[C@@H](Cc1c[nH]cn1)C(=O)N[C@@H](CC(C)C)C(=O)N[C@@H](CC(N)=O)C(=O)N[C@@H](CO)C(=O)N[C@@H](CCSC)C(=O)N[C@@H](CCC(=O)O)C(=O)N[C@@H](CCCNC(=N)N)C(=O)N[C@H](C(=O)N[C@@H](CCC(=O)O)C(=O)N[C@@H](Cc1c[nH]c2ccccc12)C(=O)N[C@@H](CC(C)C)C(=O)N[C@@H](CCCNC(=N)N)C(=O)N[C@@H](CCCCN)C(=O)N[C@@H](CCCCN)C(=O)N[C@@H](CC(C)C)C(=O)N[C@@H](CCC(N)=O)C(=O)N[C@@H](CC(=O)O)C(=O)N[C@H](C(=O)N[C@@H](Cc1c[nH]cn1)C(=O)N[C@@H](CC(N)=O)C(=O)N[C@@H](Cc1ccc(O)cc1)C(N)=O)C(C)C)C(C)C` [hPTH(1-34), [Tyr^34]hPTH(1-34)], the “activation of AC (in words)” value in experiment [1] (EW5 cells) was “activated AC equivalently”. The “cAMP Accumulation (maximal response)” value in experiment [1] (EW5 cells (rat receptor)) was found to be 130 ± 6 fold basal; in experiment [1] (EW29 cells (rat receptor)), 148 ± 16 fold basal. For the same compound, the “time to peak of cytosolic free calcium elevation” value in experiment [2] (100 nM peptide, HKRK B7 and HKRK B28) was at most 20 s. Moreover, the “peak cytosolic free calcium” value in experiment [2] (100 nM peptide, HKRK B7 and HKRK B28 monolayers, no significant difference) was 400 to 600 nM. The “time for calcium transient to approach basal levels” value in experiment [2] (AB45 cells) is 2 to 3 min. Also, the “cytosolic calcium response in cAMP-resistant cells” value in experiment [2] (AB45 cells (370,000 hPTHRs/cell, co-express REV AB)) is “robust cytosolic calcium response”. Also, in experiment [3] (HKRK B7 and HKRK B28 cells), the “phosphate uptake (in words)” value is “stimulated significantly”. The “maximal activation of phosphate uptake (in words)” value in experiment [3] (HKRK B28 and HKRK B7 cells, peptides 1000 nM, 6 hr) is listed as “comparable maximal activation of phosphate uptake”. For the same compound, in experiment [3] (cAMP-resistant AB45 cells, data not shown), the “stimulation of phosphate uptake” value is recorded as “over 2 fold”.
